What was measured:
[1] = target: T1, human Kallikrein-related peptidase 5 (hKLK5) (human), Q9Y337; experiment: enzyme inhibition; 1,3-dibromoacetone linker; settings: modification not given
[2] = target: T1, human Kallikrein-related peptidase 5 …; experiment: enzyme inhibition; pyridine linker; settings: modification not given

By UniProt entry, the sequences of proteins in these tests, tags left out. Residues count along the entry.
human Kallikrein-related peptidase 5 (hKLK5) (human), Q9Y337, UniProt Q9Y337, 67-293: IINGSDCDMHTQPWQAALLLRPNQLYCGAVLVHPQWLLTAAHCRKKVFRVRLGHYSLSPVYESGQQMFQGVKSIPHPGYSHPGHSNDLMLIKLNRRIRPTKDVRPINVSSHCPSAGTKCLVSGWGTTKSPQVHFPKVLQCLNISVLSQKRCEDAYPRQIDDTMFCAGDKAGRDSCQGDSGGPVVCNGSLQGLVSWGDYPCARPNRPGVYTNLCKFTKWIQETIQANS

In the case of ACTREYNPQCANPQCLCH [005], the Ki [1] is reported as 28 nM.

Binder MCSRQWDPSLCCPQRTCP [006] has a Ki [1] of 24 nM.

GCTRQWC [028] showed a Ki [2] of 29 nM.

From US20220267379A1, “NOVEL INHIBITORS OF […] AND USES THEREOF” (Ecole Polytechnique Federale de Lausanne (EPFL), priority 2019, published 2022)
